Protein sequences, listed by entry. Tags and fused reporters are not part of them.
replication protein-A (RPA), recombinant human heterotrimer of RPA1, RPA2 and 10xHis-RPA3, UniProt P15927, whole entry, chain 2 of 3: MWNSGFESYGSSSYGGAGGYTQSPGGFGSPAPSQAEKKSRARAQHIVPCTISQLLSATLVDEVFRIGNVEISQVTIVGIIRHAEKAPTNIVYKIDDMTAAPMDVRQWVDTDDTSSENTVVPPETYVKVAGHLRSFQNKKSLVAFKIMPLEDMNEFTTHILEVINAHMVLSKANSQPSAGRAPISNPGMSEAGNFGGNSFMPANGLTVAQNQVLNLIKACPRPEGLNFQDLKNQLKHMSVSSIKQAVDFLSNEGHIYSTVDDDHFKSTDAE
replication protein-A (RPA), recombinant human heterotrimer of RPA1, RPA2 and 10xHis-RPA3, UniProt P35244, whole entry, chain 3 of 3: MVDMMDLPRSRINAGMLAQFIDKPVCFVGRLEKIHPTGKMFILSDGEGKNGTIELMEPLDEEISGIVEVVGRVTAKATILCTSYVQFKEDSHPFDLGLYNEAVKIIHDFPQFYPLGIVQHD

In article PMC11096129 (Nature, 2024):

Target: T1, replication protein-A (RPA), recombinant human heterotrimer of RPA1, RPA2 and 10xHis-RPA3 (human, UniProt P27694 1-616; P15927 1-270; P35244 1-121)
T1 construct: RPA1, human, full-length protein; RPA2, human, full-length protein; RPA3, human, full-length protein; The tag is printed as 10xHis-RPA3; RPA was detected by anti-His on the peptide array; source: Sf9 (baculovirus, biGBac pBIG1a), purified (Ni-NTA, Resource Q, Superdex 200); copies: + +
Assay: pull-down; streptavidin beads pulling on biotin-labelled 40-nt ssDNA (SSA4, photo-cleavable linker, 0.1 µM) pre-bound by RPA (0.15 µM), then RAD52 (0.15 µM); 25 mM HEPES pH 8.0, 200 mM KOAc, 2 mM Mg(OAc)2, 0.01% Tween-20; Coomassie gel; the bait is the ssDNA
Conditions: both partners purified

B1: RAD52 open ring (RAD52-OR), recombinant human RAD52, Resource S peak 1 (natural protein, UniProt P43351 1-418, looked up)
chain: MSGTEEAILGGRDSHPAAGGGSVLCFGQCQYTAEEYQAIQKALRQRLGPEYISSRMAGGGQKVCYIEGHRVINLANEMFGYNGWAHSITQQNVDFVDLNNGKFYVGVCAFVRVQLKDGSYHEDVGYGVSEGLKSKALSLEKARKEAVTDGLKRALRSFGNALGNCILDKDYLRSLNKLPRQLPLEVDLTKAKRQDLEPSVEEARYNSCRPNMALGHPQLQQVTSPSRPSHAVIPADQDCSSRSLSSSAVESEATHQRKLRQKQLQQQFRERMEKQQVRVSTPSAEKSEAAPPAPPVTHSTPVTVSEPLLEKDFLAGVTQELIKTLEDNSEKWAVTPDAGDGVVKPSSRADPAQTSDTLALNNQMVTQNRTPHSVCHQKPQAKSGSWDLQTYSADQRTTGNWESHRKSQDMKKRKYDPS
notes: codon-optimised cDNA in pET100 with the 6xHis, T7 and Xpress tags removed by inverse PCR; the intact mass approximated RAD52 less the N-terminal methionine; At most ten subunits; open rings with 9, 7-8, 6 and 5 subunits were also seen, and the oligomeric state depends on concentration; also called RAD52 open rings; wild-type RAD52; source: E. coli BL21 Star (DE3), purified (HiTrap SP, HiTrap Q …)
B1: binds.
